According to article PMC2920814 (PLoS ONE, 2010):

Test system: transient focal cerebral ischemia (tMCAo) in rats
Assay: Transient middle cerebral artery occlusion (tMCAo) 90 min, Neurokin study, infarct volumes by TTC staining
Conditions: 90 min tMCAo; p = 0.31, Fisher exact test

CC[C@@H](CO)Nc1nc(NCc2ccccc2)c2ncn(C(C)C)c2n1 [(S)-roscovitine]
animal mortality versus vehicle group: No significant difference
